Laboratory results as given in US20120045393A1 (priority 2009, published 2012).
Read-outs that look alike come from different tables or passages of the source.

Tested on: LHRH binding sites on human ovarian cancer cells (EFO-27)
[1] = read-out: EC50 μM, Underivatized LHRH peptides and LHRH peptides with chelator on N-terminus, EFO-27 cells
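Further: Cell-associated radioactivity on confluent EFO-27 monolayers in 96-well plates, measured by microplate scintillation counting.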

| SMILES | EC50 | further results |
| --- | --- | --- |
| N=C(N)NCCC[C@H](NC(=O)[C@@H](Cc1ccc2ccccc2c1)NC(=O)[C@H](CCCCN)NC(=O)CN1CCN(CC(=O)O)CCN(CC(=O)O)CCN(CC(=O)O)CC1)C(=O)N[C@@H](Cc1c[nH]c2ccccc12)C(=O)N[C@@H](CO)C(=O)N[C@@H](Cc1c[nH]cn1)C(=O)N[C@H](CCCNC(=N)N)C(=O)N[C@@H](Cc1c[nH]c2ccccc12)C(=O)N[C@@H](Cc1ccc(C(=O)c2ccccc2)cc1)C(=O)N1CCC[C@H]1C(=O)NNC(N)=O [BRU-3097] | – | EC50 [1]: 0.45 µM |
| N=C(N)NCCC[C@H](NC(=O)[C@@H](Cc1ccc2ccccc2c1)NC(=O)CN1CCN(CC(=O)O)CCN(CC(=O)O)CCN(CC(=O)O)CC1)C(=O)N[C@@H](Cc1c[nH]c2ccccc12)C(=O)N[C@@H](CC(N)=O)C(=O)N[C@@H](Cc1c[nH]cn1)C(=O)N[C@H](CCCNC(=N)N)C(=O)N[C@@H](Cc1c[nH]c2ccccc12)C(=O)N[C@@H](Cc1ccc(C(=O)c2ccccc2)cc1)C(=O)N1CCC[C@H]1C(=O)NNC(N)=O [BRU-2956] | 0.27 µM | – |
| N=C(N)NCCC[C@H](NC(=O)[C@@H](Cc1ccc(CN)cc1)NC(=O)CN1CCN(CC(=O)O)CCN(CC(=O)O)CCN(CC(=O)O)CC1)C(=O)N[C@@H](Cc1c[nH]c2ccccc12)C(=O)N[C@@H](CO)C(=O)N[C@@H](Cc1c[nH]cn1)C(=O)N[C@H](CCCNC(=N)N)C(=O)N[C@@H](Cc1c[nH]c2ccccc12)C(=O)N[C@@H](Cc1ccc(C(=O)c2ccccc2)cc1)C(=O)N1CCC[C@H]1C(=O)NNC(N)=O [BRU-2997] | 0.33 µM | – |
| N=C(N)NCCC[C@H](NC(=O)[C@H](Cc1ccc(Oc2ccc(O)cc2)cc1)NC(=O)CN1CCN(CC(=O)O)CCN(CC(=O)O)CCN(CC(=O)O)CC1)C(=O)N[C@@H](Cc1c[nH]c2ccccc12)C(=O)N[C@@H](CO)C(=O)N[C@@H](Cc1c[nH]cn1)C(=O)N[C@H](CCCNC(=N)N)C(=O)N[C@@H](Cc1c[nH]c2ccccc12)C(=O)N[C@@H](Cc1ccc(C(=O)c2ccccc2)cc1)C(=O)N1CCC[C@H]1C(=O)NNC(N)=O [BRU-3069] | – | EC50 (Table 5: modifications of amino acids at positions 1 and 2, in vitro binding on EFO-27 cells): 0.38 µM |
| N=C(N)NCCC[C@H](NC(=O)[C@@H](Cc1ccc2ccccc2c1)NC(=O)CN1CCN(CC(=O)O)CCN(CC(=O)O)CCN(CC(=O)O)CC1)C(=O)N[C@@H](Cc1c[nH]c2ccccc12)C(=O)N[C@@H](CO)C(=O)N[C@@H](Cc1c[nH]cn1)C(=O)N[C@H](CCCNC(=N)N)C(=O)N[C@@H](Cc1c[nH]c2ccccc12)C(=O)N[C@@H](Cc1ccc2ccccc2c1)C(=O)N1CCC[C@H]1C(=O)NNC(N)=O [BRU-3027] | 0.37 µM | – |
| N=C(N)NCCC[C@H](NC(=O)[C@@H](Cc1ccc2ccccc2c1)NC(=O)CNC(=O)CN1CCN(CC(=O)O)CCN(CC(=O)O)CCN(CC(=O)O)CC1)C(=O)N[C@@H](Cc1c[nH]c2ccccc12)C(=O)N[C@@H](CO)C(=O)N[C@@H](Cc1c[nH]cn1)C(=O)N[C@H](CCCNC(=N)N)C(=O)N[C@@H](Cc1c[nH]c2ccccc12)C(=O)N[C@@H](Cc1ccc(C(=O)c2ccccc2)cc1)C(=O)N1CCC[C@H]1C(=O)NNC(N)=O [BRU-2962] | – | EC50 [1]: 0.47 µM |
| CCCCCCCCCCCC[C@H](NC(=O)CN1CCN(CC(=O)O)CCN(CC(=O)O)CCN(CC(=O)O)CC1)C(=O)N[C@@H](CCCNC(=N)N)C(=O)N[C@@H](Cc1c[nH]c2ccccc12)C(=O)N[C@@H](CO)C(=O)N[C@@H](Cc1c[nH]cn1)C(=O)N[C@H](CCCNC(=N)N)C(=O)N[C@@H](Cc1c[nH]c2ccccc12)C(=O)N[C@@H](Cc1ccc(C(=O)c2ccccc2)cc1)C(=O)N1CCC[C@H]1C(=O)NNC(N)=O [BRU-3055] | 0.39 µM | – |
| CCCCCCCCCCCC[C@@H](NC(=O)CN1CCN(CC(=O)O)CCN(CC(=O)O)CCN(CC(=O)O)CC1)C(=O)N[C@@H](CCCNC(=N)N)C(=O)N[C@@H](Cc1c[nH]c2ccccc12)C(=O)N[C@@H](CO)C(=O)N[C@@H](Cc1c[nH]cn1)C(=O)N[C@H](CCCNC(=N)N)C(=O)N[C@@H](Cc1c[nH]c2ccccc12)C(=O)N[C@@H](Cc1ccc(C(=O)c2ccccc2)cc1)C(=O)N1CCC[C@H]1C(=O)NNC(N)=O [BRU-3063] | 0.47 µM | – |
| N=C(N)NCCC[C@H](NC(=O)[C@H](Cc1c[nH]cn1)NC(=O)CN1CCN(CC(=O)O)CCN(CC(=O)O)CCN(CC(=O)O)CC1)C(=O)N[C@@H](Cc1c[nH]c2ccccc12)C(=O)N[C@@H](CO)C(=O)N[C@@H](Cc1c[nH]cn1)C(=O)N[C@H](CCCNC(=N)N)C(=O)N[C@@H](Cc1c[nH]c2ccccc12)C(=O)N[C@@H](Cc1ccc(C(=O)c2ccccc2)cc1)C(=O)N1CCC[C@H]1C(=O)NNC(N)=O [BRU-3025] | – | EC50 [1]: 0.47 µM |
| N=C(N)NCCC[C@H](NC(=O)[C@@H](Cc1ccc2ccccc2c1)NC(=O)CN1CCN(CC(=O)O)CCN(CC(=O)O)CCN(CC(=O)O)CC1)C(=O)N[C@@H](Cc1c[nH]c2ccccc12)C(=O)N[C@@H](CO)C(=O)N[C@@H](CCCN)C(=O)N[C@H](CCCNC(=N)N)C(=O)N[C@@H](Cc1c[nH]c2ccccc12)C(=O)N[C@@H](Cc1ccc(C(=O)c2ccccc2)cc1)C(=O)N1CCC[C@H]1C(=O)NNC(N)=O [compound 2961] | 0.35 µM | – |
| N=C(N)NCCC[C@@H](NC(=O)[C@H](Cc1c[nH]cn1)NC(=O)[C@H](CO)NC(=O)[C@H](Cc1c[nH]c2ccccc12)NC(=O)[C@@H](NC(=O)[C@@H](Cc1ccc2ccccc2c1)NC(=O)CN1CCN(CC(=O)O)CCN(CC(=O)O)CCN(CC(=O)O)CC1)C1CCN(C(=N)N)CC1)C(=O)N[C@@H](Cc1c[nH]c2ccccc12)C(=O)N[C@@H](Cc1ccc(C(=O)c2ccccc2)cc1)C(=O)N1CCC[C@H]1C(=O)NNC(N)=O [BRU-3060] | 0.34 µM | – |
| N=C(N)NCCC[C@@H](NC(=O)[C@H](Cc1c[nH]cn1)NC(=O)[C@H](CO)NC(=O)[C@H](Cc1c[nH]c2ccccc12)NC(=O)[C@@H](Cc1ccc(CN)cc1)NC(=O)[C@@H](Cc1ccc(CN)cc1)NC(=O)CN1CCN(CC(=O)O)CCN(CC(=O)O)CCN(CC(=O)O)CC1)C(=O)N[C@@H](Cc1c[nH]c2ccccc12)C(=O)N[C@@H](Cc1ccc(C(=O)c2ccccc2)cc1)C(=O)N1CCC[C@H]1C(=O)NNC(N)=O [BRU-3095] | 0.29 µM | – |
| N=C(N)NCCC[C@H](NC(=O)[C@@H](Cc1ccc2ccccc2c1)NC(=O)CN1CCN(CC(=O)O)CCN(CC(=O)O)CCN(CC(=O)O)CC1)C(=O)N[C@@H](Cc1c[nH]c2ccccc12)C(=O)N[C@@H](CN)C(=O)N[C@@H](Cc1c[nH]cn1)C(=O)N[C@H](CCCNC(=N)N)C(=O)N[C@@H](Cc1c[nH]c2ccccc12)C(=O)N[C@@H](Cc1ccc(C(=O)c2ccccc2)cc1)C(=O)N1CCC[C@H]1C(=O)NNC(N)=O [compound 2955] | 0.41 µM | – |
| CC(=O)N[C@H](Cc1ccc2ccccc2c1)C(=O)N[C@@H](Cc1c[nH]cn1)C(=O)N[C@@H](Cc1c[nH]c2ccccc12)C(=O)N[C@@H](CO)C(=O)N[C@@H](Cc1c[nH]cn1)C(=O)N[C@H](CCCNC(=N)N)C(=O)N[C@@H](Cc1c[nH]c2ccccc12)C(=O)N[C@@H](Cc1ccc(C(=O)c2ccccc2)cc1)C(=O)N1CCC[C@H]1C(=O)NNC(N)=O [BRU-2803] | 0.26 µM | – |
| CN[C@@H](Cc1ccccc1)C(=O)N[C@@H](Cc1c[nH]cn1)C(=O)N[C@@H](Cc1c[nH]c2ccccc12)C(=O)N[C@@H](CO)C(=O)N[C@@H](Cc1c[nH]cn1)C(=O)N[C@H](CCCNC(=N)N)C(=O)N[C@@H](Cc1c[nH]c2ccccc12)C(=O)N[C@@H](Cc1ccc(C(=O)c2ccccc2)cc1)C(=O)N1CCC[C@H]1C(=O)NNC(N)=O [BRU-2734] | 0.15 µM | – |
| N=C(N)NCCC[C@H](NC(=O)[C@H](Cc1ccc(-c2ccccc2)cc1)NC(=O)CN1CCN(CC(=O)O)CCN(CC(=O)O)CCN(CC(=O)O)CC1)C(=O)N[C@@H](Cc1c[nH]c2ccccc12)C(=O)N[C@@H](CO)C(=O)N[C@@H](Cc1c[nH]cn1)C(=O)N[C@H](CCCNC(=N)N)C(=O)N[C@@H](Cc1c[nH]c2ccccc12)C(=O)N[C@@H](Cc1ccc(C(=O)c2ccccc2)cc1)C(=O)N1CCC[C@H]1C(=O)NNC(N)=O [BRU-3070] | 0.28 µM | – |
| N=C(N)NCCC[C@H](NC(=O)[C@H](CCCNC(=N)N)NC(=O)[C@@H](Cc1ccc2ccccc2c1)NC(=O)CN1CCN(CC(=O)O)CCN(CC(=O)O)CCN(CC(=O)O)CC1)C(=O)N[C@@H](CO)C(=O)N[C@@H](Cc1c[nH]cn1)C(=O)N[C@H](CCCNC(=N)N)C(=O)N[C@@H](Cc1c[nH]c2ccccc12)C(=O)N[C@@H](Cc1ccc(C(=O)c2ccccc2)cc1)C(=O)N1CCC[C@H]1C(=O)NNC(N)=O [compound 3111] | 0.25 µM | – |
| N=C(N)NCCC[C@H](NC(=O)[C@@H](Cc1ccc2ccccc2c1)NC(=O)c1ccc(CNC(=O)CN2CCN(CC(=O)O)CCN(CC(=O)O)CCN(CC(=O)O)CC2)cc1)C(=O)N[C@@H](Cc1c[nH]c2ccccc12)C(=O)N[C@@H](CO)C(=O)N[C@@H](Cc1c[nH]cn1)C(=O)N[C@H](CCCNC(=N)N)C(=O)N[C@@H](Cc1c[nH]c2ccccc12)C(=O)N[C@@H](Cc1ccc(C(=O)c2ccccc2)cc1)C(=O)N1CCC[C@H]1C(=O)NNC(N)=O [BRU-2963] | 0.28 µM | – |
| N=C(N)NCCC[C@@H](NC(=O)[C@H](Cc1c[nH]cn1)NC(=O)[C@H](CO)NC(=O)[C@H](Cc1c[nH]c2ccccc12)NC(=O)[C@H](Cc1ccc(NC(=N)N)cc1)NC(=O)[C@@H](Cc1ccc2ccccc2c1)NC(=O)CN1CCN(CC(=O)O)CCN(CC(=O)O)CCN(CC(=O)O)CC1)C(=O)N[C@@H](Cc1c[nH]c2ccccc12)C(=O)N[C@@H](Cc1ccc(C(=O)c2ccccc2)cc1)C(=O)N1CCC[C@H]1C(=O)NNC(N)=O [BRU-3058] | 0.26 µM | – |
| N=C(N)NCCC[C@H](NC(=O)[C@@H](Cc1ccc(C(=O)c2ccccc2)cc1)NC(=O)CN1CCN(CC(=O)O)CCN(CC(=O)O)CCN(CC(=O)O)CC1)C(=O)N[C@@H](Cc1c[nH]c2ccccc12)C(=O)N[C@@H](CO)C(=O)N[C@@H](Cc1c[nH]cn1)C(=O)N[C@H](CCCNC(=N)N)C(=O)N[C@@H](Cc1c[nH]c2ccccc12)C(=O)N[C@@H](Cc1ccc(C(=O)c2ccccc2)cc1)C(=O)N1CCC[C@H]1C(=O)NNC(N)=O [BRU-3071] | 0.31 µM | – |
| N=C(N)NCCC[C@H](NC(=O)[C@@H](Cc1ccc2ccccc2c1)NC(=O)CN1CCN(CC(=O)O)CCN(CC(=O)O)CCN(CC(=O)O)CC1)C(=O)N[C@@H](Cc1ccc(CN)cc1)C(=O)N[C@@H](CO)C(=O)N[C@@H](Cc1c[nH]cn1)C(=O)N[C@H](CCCNC(=N)N)C(=O)N[C@@H](Cc1c[nH]c2ccccc12)C(=O)N[C@@H](Cc1ccc(C(=O)c2ccccc2)cc1)C(=O)N1CCC[C@H]1C(=O)NNC(N)=O [compound 3107] | 0.38 µM | – |
